# Literature values in patent US20250340562A1, “CHROMANE IMAGING LIGANDS” (The General Hospital Corporation, priority 2021, published 2025).
# Amino acid sequences for entries named in this document (tags omitted). Residues count along the entry.
# UniProt P31421, 19-872 limits assumed: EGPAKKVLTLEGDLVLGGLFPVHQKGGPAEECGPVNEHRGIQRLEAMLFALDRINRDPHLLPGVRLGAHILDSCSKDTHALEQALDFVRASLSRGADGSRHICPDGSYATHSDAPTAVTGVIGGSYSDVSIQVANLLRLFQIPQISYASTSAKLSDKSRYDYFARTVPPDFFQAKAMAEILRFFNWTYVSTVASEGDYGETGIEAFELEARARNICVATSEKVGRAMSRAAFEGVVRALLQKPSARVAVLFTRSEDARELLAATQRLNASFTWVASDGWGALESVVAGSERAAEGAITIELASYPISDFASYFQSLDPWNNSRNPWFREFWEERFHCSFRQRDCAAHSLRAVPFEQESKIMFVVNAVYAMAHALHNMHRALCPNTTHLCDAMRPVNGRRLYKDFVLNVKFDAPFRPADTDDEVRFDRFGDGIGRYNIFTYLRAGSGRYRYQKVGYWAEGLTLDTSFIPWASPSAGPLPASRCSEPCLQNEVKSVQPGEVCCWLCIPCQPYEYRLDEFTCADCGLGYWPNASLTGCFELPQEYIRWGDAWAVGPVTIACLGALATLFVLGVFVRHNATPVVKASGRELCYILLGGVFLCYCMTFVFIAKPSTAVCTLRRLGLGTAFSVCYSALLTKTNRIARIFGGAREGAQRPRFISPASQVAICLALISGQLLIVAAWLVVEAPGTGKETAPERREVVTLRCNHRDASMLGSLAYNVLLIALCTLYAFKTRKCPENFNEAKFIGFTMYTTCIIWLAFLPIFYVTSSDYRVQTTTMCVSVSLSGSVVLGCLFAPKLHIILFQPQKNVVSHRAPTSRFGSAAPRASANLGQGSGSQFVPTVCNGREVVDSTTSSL
# Target: mGluR2 (Rattus norvegicus, UniProt P31421)
# Conditions: rat brain, earlier tracers; tested as the radiolabelled form; cited from earlier work
row,Compound,SUVmax
1,COc1ccc(-c2cc(C(N)=O)ncc2OCc2ccn(C)n2)c(F)c1,1.2
2,COc1ccc(-c2cc(C(N)=O)ncc2OCc2ccnc(C)c2)c(F)c1,0.7
3,COc1ccc(-c2cc(C(N)=O)nc3cc(CN4C(=O)CCC4=O)ccc23)c(F)c1,0.3
